This experiment has as its target T1, VEGF-A/VEGFR-1 interaction (Homo sapiens, UniProt P17948).
T1 construct: the form consisting of the seven extracellular domains of the receptor fused to the Fc domain of human IgG; purchased R&D Systems 321-FL (receptor); 293-VE (VEGF-A)
As to the kind of experiment: ELISA competition assay of VEGF-A binding to VEGFR-1. Particulars: tetrameric peptides of formula (II) with Y2 different from D-cysteine; read-out: IC50 of inhibition of the interaction VEGF-A/VEGFR-1. The method, then: The binding reaction was conducted for one hour at 37° C., followed by one hour at room temperature. At the end of the binding and/or competition step, anti-human-PIGF biotinylated polyclonal antibodies (R&D Systems, cat No. BAF264) or anti-human-VEGF-A (R&D Systems, cat No. BAF293) were added to the wells at the concentration of 300 ng/ml in PBET. After one hour of incubation at 37° C. followed by one hour at room temperature, an HRP-conjugated avidin-streptavidin system (Vectastain elite ABC kit) and a substrate for HRP (o-phenylenediamine-Sigma, cat No. P1526) were added to the wells. Quantization was performed by determining the absorbance at 490 nm. Any inhibitory activity of the peptides was expressed in terms of % of residual binding, comparing the data obtained for the binding of PIGF or VEGF-A to the receptors in the presence of the tetrameric peptides with those in the absence of the same. iVR1 represented the positive control of the inhibition of the PIGF/VEGFR-1 or VEGF-A/VEGFR-1 interaction.

Chains of the proteins cited; added tags and fusions are not shown. Residues count along the entry.
UniProt P17948, 27-758 limits assumed: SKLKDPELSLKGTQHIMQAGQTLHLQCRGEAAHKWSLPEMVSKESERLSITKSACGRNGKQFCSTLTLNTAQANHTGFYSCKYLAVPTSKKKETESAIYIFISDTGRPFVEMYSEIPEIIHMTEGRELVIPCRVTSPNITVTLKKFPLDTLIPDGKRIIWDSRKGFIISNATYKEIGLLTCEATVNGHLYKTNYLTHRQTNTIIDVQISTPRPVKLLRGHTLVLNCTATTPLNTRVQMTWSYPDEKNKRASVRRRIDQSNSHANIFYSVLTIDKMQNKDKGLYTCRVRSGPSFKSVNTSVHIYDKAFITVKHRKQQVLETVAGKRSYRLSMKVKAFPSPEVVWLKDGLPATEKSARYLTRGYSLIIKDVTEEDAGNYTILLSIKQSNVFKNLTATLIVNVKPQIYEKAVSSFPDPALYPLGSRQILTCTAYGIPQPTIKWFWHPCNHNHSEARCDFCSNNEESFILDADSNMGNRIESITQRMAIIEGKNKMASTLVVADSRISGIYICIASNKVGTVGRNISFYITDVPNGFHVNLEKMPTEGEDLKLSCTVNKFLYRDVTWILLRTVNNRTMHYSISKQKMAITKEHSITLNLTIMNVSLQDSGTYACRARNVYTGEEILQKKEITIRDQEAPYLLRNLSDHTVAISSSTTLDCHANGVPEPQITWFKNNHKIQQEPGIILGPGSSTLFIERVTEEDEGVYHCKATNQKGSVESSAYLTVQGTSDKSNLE

On to D-threonine, for which the IC50 is 2600 ± 600 nM.
Take L-methionine: the IC50 amounted to 2150 ± 1000 nM.
As to L-methionine sulfoxide, the IC50 amounted to 15700 ± 2100 nM.
The value for L-threonine was 1290 ± 500 nM.

For the origin of these results see patent US12653859B2, “Peptides and medical uses thereof” (Anbition S.R.L., priority 2018, dated 2026).
